Laboratory results published in patent US9797889B2, “Activation of bioluminescence by structural complementation” (Promega Corporation, priority 2013, dated 2017).

Target: FRB and FKBP (Homo sapiens, UniProt P42345+P62942)
Test: Rapamycin-induced FRB/FKBP interaction with NLpoly/NLpep fusions in HEK293T cells (Examples 65-76)
Conditions: 50 nM rapamycin 2 h, FRB-NLpoly with FKBP-NLpep

B1: 5A2: 5A2 non-luminescent mutant generated in Example 6 (SEQ ID NOS: 539 and 540) (protein)
chain: MVFTLEDFVGDWRQTAAYNLDQVLEQGGVSSLFQNLAVSVTPIQRIVLSGENALKIDIHVIIPYEGLSADQMAQIEKIFKVVYPVDDHHFKVILHYGTLVIDGVTPNMIDYFGRPYEGIAVFDGKKITVTGTLWNGNKIIDERLINPDGSLLFRVTINV
- rapamycin induction of luminescence: greater rapamycin induction relative to NLpoly5P
